Laboratory results as given in the NIST ThermoML archive (doi:10.1016/j.jct.2011.02.012).
Numbers after ± are expanded uncertainties.

Test: activity coefficient (dimensionless); of the first substance listed, at infinite dilution; xn = mol fraction of the nth substance listed
Settings: Liquid, Chromatography, x1 = 0

## CCCCOCCCC [dibutyl ether] + CCn1cc[n+](C)c1.N#C[B-](C#N)(C#N)C#N
298.15 K
  activity coefficient: 20.6 ± 1.4
308.15 K
  activity coefficient: 19.2 ± 1.3
318.15 K
  activity coefficient: 18.4 ± 1.3
328.15 K
  activity coefficient: 17.2 ± 1.2
338.15 K
  activity coefficient: 16.4 ± 1.1
348.15 K
  activity coefficient: 15.7 ± 1.1
358.15 K
  activity coefficient: 14.9 ± 1
